Values of other authors in patent EP4759820A1, “METHOD FOR PRODUCING PEPTIDE COMPOUND USING STAND-ALONE-TYPE CONDENSING AGENT” (CHUGAI SEIYAKU KABUSHIKI KAISHA, priority 2023, dated 2025).
Some compounds may have been tested in ways that are not shown here.

Conditions: representative additives; water as solvent, 25°C; literature reference given with each value

Compound	pKa
N-Hyrdroxy-2-morpholino-2-oxoacetimidoyl cyanide	6.1
On1ncnn1	8.2
Hydroxypicolinimidoyl cyanide	8.2
O=[N+]([O-])C(=NO)[N+](=O)[O-]	2.7
